Literature values in patent US8613821B2, “Basic metal nitrate, process for producing the same and gas generating agent composition” (dated 2013).

Test system: rat

diammonium salt of bitetrazole
LD50 (oral-rat): 2,000 mg/kg
